According to patent publication US4029778A (priority 1969, dated 1977):

Experiments:
Walker 256 tumor = Walker 256 tumor growth inhibition and lethality, intraperitoneal (Table 4); conditions: 5 × dose
Hepatoma 130 tumor = Hepatoma 130 tumor growth inhibition and lethality, intraperitoneal (Table 2); conditions: 1 × dose
Ehrlich ascites tumor = Ehrlich ascites tumor growth inhibition and lethality, intraperitoneal (Table I)

O=C(O)c1ccc(N(CCCl)CCCl)cc1
ED50 (Effect) (Walker 256 tumor): 13.4 mg/kg | LD50 (Lethality) (Walker 256 tumor): 89 mg/kg | ED50 (Effect) (Hepatoma 130 tumor): 20 mg/kg | LD50 (Lethality) (Hepatoma 130 tumor): 125 mg/kg | LD50 (Lethality) (Ehrlich ascites tumor; 1 × dose): 125 mg/kg | Effect (Ehrlich ascites tumor; at 1 × 63 mg/kg): no effect
